Chains of the proteins cited; added tags and fusions are not shown.
UniProt Q99705, whole entry: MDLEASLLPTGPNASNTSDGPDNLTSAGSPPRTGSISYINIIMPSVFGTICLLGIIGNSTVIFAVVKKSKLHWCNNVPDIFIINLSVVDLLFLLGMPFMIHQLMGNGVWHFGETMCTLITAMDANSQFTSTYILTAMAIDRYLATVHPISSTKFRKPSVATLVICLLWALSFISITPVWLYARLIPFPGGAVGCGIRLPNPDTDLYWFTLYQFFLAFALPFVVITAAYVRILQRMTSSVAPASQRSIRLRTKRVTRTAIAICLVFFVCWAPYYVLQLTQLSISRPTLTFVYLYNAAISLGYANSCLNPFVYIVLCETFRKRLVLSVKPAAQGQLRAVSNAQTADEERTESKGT

In patent US8329704B2, “Substituted pyrazinone derivatives for use in MCH-1 mediated diseases” (Janssen Pharmaceutica, N.V., priority 2005, dated 2012):

Each compound was assayed against human MCH-1 receptor (Homo sapiens, UniProt Q99705) (assay: Ca2+ mobilization experiment for the MCH-1 receptor (FLIPR), inhibition of MCH-induced Ca2+ mobilization). Settings: CHO cells stably expressing human MCH-1 receptor, inhibition of MCH-induced Ca2+ response.
Protocol: The interaction of the compounds of Formula (I) with MCH-1 receptors was assessed in in vitro transient calcium (Ca^2+) mobilization assays in the fluorimetric imaging plate reader (FLIPR) format (Sullivan et al. 1999, Methods Mol Biol 114:125-133). In general, the natural agonist (MCH) is incubated with cells expressing the MCH-1 receptor, which elicits a concentration-dependent transient mobilization of Ca^2+ from internal stores. The interaction of the test compounds with the receptor is assessed in competition experiments. Various concentrations of the test compound are added to the incubation mixture containing the receptor-expressing cells and a submaximal concentration of MCH. The test compound in proportion to its antagonist potency and its concentration inhibits MCH-induced Ca^2+ mobilization.
Chinese Hamster ovary cells (CHO) stably expressing the human MCH-1 receptor are grown in a 1:1 mixture of Dulbecco's Modified Eagles Medium (DMEM) and HAM's F12 medium including Glutamax™ (Invitrogen), supplemented with 10% heat-inactivated fetal bovine serum and 400 μg/ml geneticin.
Twenty-four hours before the experiment, MCH-1 receptor-expressing CHO cells are seeded in 20 μl (5,000 cells per well) into 384-well black wall, clear bottom microtiter plates (Costar). On the day of the experiment, 20 μl per well calcium assay kit containing 10 mM probenicide (Molecular Devices) is added. Cells are loaded for 90 min at 37° C. and 5% CO2 in a cell culture incubator. After loading, 20 μl of serial dilutions of the test compound are added and cells are further incubated for 20 min at room temperature in the dark. After 20 min, 20 μl of a submaximal MCH concentration is added and changes in intracellular calcium are recorded directly in a FLIPR III apparatus (Molecular devices).
Data from assays in the presence of compound were calculated as a percentage of total Ca^2+-responses measured in the absence of test compound. Inhibition curves, plotting percent of total Ca^2+-responses versus the log value of the concentration of the test compound, were automatically generated, and sigmoidal inhibition curves were fitted using non-linear regression. The pIC50 values of test compounds were derived from individual curves.

MCH-1 pIC50	SMILES
7.3	COc1cc(-n2ccnc(NCCc3ccccc3)c2=O)ccc1OCC(C)N1CCOCC1 (stereo not shown)
7.4	O=c1c(NCCOc2ccccc2)nccn1-c1ccc2nc(CN3CCCC3)ccc2c1
6.4	COc1cc(-n2ccnc(NCC3CCc4ccccc4O3)c2=O)ccc1OCCN1CCCC1 (stereo not shown)
6.8	COc1cc(-n2ccnc(NCCc3ccccn3)c2=O)ccc1OCCN1CCCC1
7.4	COc1cc(-n2ccnc(NCCc3ccccc3)c2=O)ccc1OCC(C)N1CCCC1 (stereo not shown)
6.6	COc1cc(-n2ccnc(NCCOc3ccccn3)c2=O)ccc1OCCN1CCCC1
6.5	COc1cc(-n2ccnc(NCCOc3ccccc3Cl)c2=O)ccc1OCCN(C)C(C)=O
7.2	COc1cc(-n2ccnc(NCCCOc3ccccn3)c2=O)ccc1OCCN1CCCC1
6.7	COc1cc(-n2ccnc(NCCc3ccccc3Cl)c2=O)ccc1OCCN(C)C(C)=O
7.2	COc1cc(-n2ccnc(NCCOc3ccccc3)c2=O)ccc1OC(C)CN(C)C (stereo not shown)
6.4	O=c1c(NCCOc2ccccc2)nccn1-c1ccc(N2CCC(O)CC2)nc1
6.5	O=c1c(NCCOc2ccccc2)nccn1-c1ccc(NCCN2CCCC2)nc1
7.2	COc1cc(-n2ccnc(NCCOc3ccccc3)c2=O)ccc1OCC(C)N(C)C (stereo not shown)

Further lines, the compound ahead of its results:

SMILES	MCH-1 pIC50
O=c1c(NCCc2ccc(F)cc2)nccn1-c1ccc(OC2CCNC2)c(Cl)c1 (stereo not shown)	7.3
O=c1c(NCCc2ccc(F)cc2)nccn1-c1ccc(OCCN2CCC(O)C2)c(Cl)c1 (stereo not shown)	7.5
COc1cc(-n2ccnc(NCCc3cccnc3)c2=O)ccc1OCCN1CCCC1	6.8
COc1cc(-n2ccnc(NCC3Oc4ccccc4O3)c2=O)ccc1OCCN1CCCC1	7.0
COc1cc(-n2ccnc(NC3Cc4ccccc4C3)c2=O)ccc1OCCN1CCCC1	6.5
COc1cc(-n2ccnc(SCCc3ccccn3)c2=O)ccc1OCCN1CCCC1	7.1
CNC1CCN(c2ccc(-n3ccnc(NCCc4ccccn4)c3=O)cc2OC)C1 (stereo not shown)	6.5
COc1cc(-n2ccnc(N3CCc4ccccc4C3)c2=O)ccc1OCCN1CCCC1	5.1
O=c1c(NCCOc2ccc(F)cc2)nccn1-c1ccc(OC2CCNC2)c(Cl)c1 (stereo not shown)	6.8
CN1CCN(c2ccc(-n3ccnc(NCCc4ccc(F)cc4)c3=O)cc2Cl)CC1	7.5
COc1cc(-n2ccnc(Sc3ccc4ccccc4c3)c2=O)ccc1OCCN1CCCC1	6.5
COc1cc(-n2ccnc(Nc3ccc(-c4ccccc4)cc3)c2=O)ccc1OCCN1CCCC1	6.6
O=c1c(NCCc2ccccn2)nccn1-c1ccc(OCCN2CCC(F)CC2)c(Cl)c1	7.1
O=c1c(NCCOc2ccc(F)cc2)nccn1-c1ccc(OCCN2CCC(O)C2)c(Cl)c1 (stereo not shown)	6.5
COc1cc(-n2ccnc(SCCc3ccc(Cl)cc3)c2=O)ccc1OCCN1CCCC1	7.2
